Chains of the proteins cited; added tags and fusions are not shown. Lines headed by an entry give the natural chain unless they say otherwise; changes in a name come on top.
UniProt P45983: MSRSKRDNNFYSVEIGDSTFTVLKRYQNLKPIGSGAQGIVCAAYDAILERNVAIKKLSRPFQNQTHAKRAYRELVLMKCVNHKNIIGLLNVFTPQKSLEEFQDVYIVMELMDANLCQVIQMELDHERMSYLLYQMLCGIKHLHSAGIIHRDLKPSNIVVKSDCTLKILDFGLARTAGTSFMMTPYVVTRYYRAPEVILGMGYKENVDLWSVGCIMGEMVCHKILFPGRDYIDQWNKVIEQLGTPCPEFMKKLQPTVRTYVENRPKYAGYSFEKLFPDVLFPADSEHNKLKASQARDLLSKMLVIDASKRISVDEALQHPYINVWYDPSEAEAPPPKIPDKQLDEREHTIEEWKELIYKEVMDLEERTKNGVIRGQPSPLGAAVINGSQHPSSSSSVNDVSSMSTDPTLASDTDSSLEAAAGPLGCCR

In patent US20100240720A1, “ALLOSTERIC JNK INHIBITORS” (Burnham Institute for Medical Research, priority 2009, published 2010):

Target: JNK kinase (Homo sapiens, UniProt P45983)
Assay: Lantha Screen Kinase Activity Assay
Assay type: biochemical

NC(=O)c1ccsc1NC(=O)Cc1ccc2c(c1)OCCO2
IC50: 2700 nM
